From PubChem BioAssay AID1648 (Sanford-Burnham Center for Chemical Genomics, 2009) come the findings set out here.

Molecules are shown by their SMILES. Activity calls are given as the source filed them. No rule for the calls is given here. Where only a bound is given, the exact number is not on record here.

This experiment addresses Serine/threonine-protein kinase mTOR (Homo sapiens) (UniProt P42345). In words: mTOR FRB domain ligand binding – biophysical, NMR (AID 1648). The following applies: NMR binding to FRB domain, chemical shift.

`Cc1c2non([O-])c-2c(C)[n+](=O)[n+]1[O-]`: the Kd – broadly, the concentration at which binding is half-saturated – is inactive: > 4 mM.
